The numbers were not newly measured in US20230355571A1, “METHOD FOR TREATING VIRAL AND BACTERIAL INFECTION THROUGH INHALATION THERAPY” (priority 2020, published 2023), which cites them from elsewhere.

The chains behind the UniProt entries cited, without tags or fusion partners.
UniProt P34972, whole entry: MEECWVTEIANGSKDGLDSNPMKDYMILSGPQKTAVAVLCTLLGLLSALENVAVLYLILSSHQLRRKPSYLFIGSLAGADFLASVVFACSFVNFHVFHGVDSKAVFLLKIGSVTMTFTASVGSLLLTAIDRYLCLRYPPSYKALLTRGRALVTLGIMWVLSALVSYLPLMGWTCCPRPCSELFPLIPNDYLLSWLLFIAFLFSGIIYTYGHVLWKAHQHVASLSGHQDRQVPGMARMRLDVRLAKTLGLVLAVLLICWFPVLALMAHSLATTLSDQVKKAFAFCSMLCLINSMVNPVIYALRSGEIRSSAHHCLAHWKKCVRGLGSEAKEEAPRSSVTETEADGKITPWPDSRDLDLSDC

The target of this data set is CB2 receptor (Homo sapiens, UniProt P34972). The settings on record: read-out: Ki, CB2 receptor binding; cited from earlier work.

For `C=C(C)[C@@H]1CCC(C)=C[C@H]1c1c(O)cc(CCCCC)cc1O` [CBD, Cannabidiol], the Ki was 2.68 µM.
